Results on one molecule are retold here after patent US20220243160A1, “Method and Apparatus for Interrogating Biological Systems” (Arizona Board of Regents on Behalf of the University of …, priority 2019, published 2022).

The data set deals with SKOV3 ovarian cancer cells. Kind of data set: MTT antiproliferative assay on SKOV3 cells in monolayer (2D). To be noted: SKOV3 2D, 0.156 to 80 μM, 48 h. A general note: Formazan colour is commonly taken as a measure of viable cells.

With `CC1=C(CO)C(=O)O[C@@H]([C@@H](C)[C@H]2CC[C@H]3[C@@H]4C[C@H]5O[C@]56[C@@H](O)C=CC(=O)[C@]6(C)[C@H]4CC[C@]23C)C1` [WFA, withaferin A], the cytotoxic effect result was “dose-dependent cytotoxic effect”.
